Source: PubChem BioAssay AID2528 (National Center for Advancing Translational Sciences (NCATS), 2010)
Where “and” joins values, the source holds several entries; their conditions need not be identical. Identical values can stand only once. The list shows a part of the results, in another mix than the full data. Calls of active or inactive are those of the source. The call rests on the fitted dose curve; in most records, active means well fitted inhibition curve with a large enough effect; inconclusive means small, poorly fitted or top-dose-only effect; inactive means flat fitted curve, though single readings scatter.

Protein sequences, listed by entry. Tags and fused reporters are not part of them.
UniProt P54132, whole entry: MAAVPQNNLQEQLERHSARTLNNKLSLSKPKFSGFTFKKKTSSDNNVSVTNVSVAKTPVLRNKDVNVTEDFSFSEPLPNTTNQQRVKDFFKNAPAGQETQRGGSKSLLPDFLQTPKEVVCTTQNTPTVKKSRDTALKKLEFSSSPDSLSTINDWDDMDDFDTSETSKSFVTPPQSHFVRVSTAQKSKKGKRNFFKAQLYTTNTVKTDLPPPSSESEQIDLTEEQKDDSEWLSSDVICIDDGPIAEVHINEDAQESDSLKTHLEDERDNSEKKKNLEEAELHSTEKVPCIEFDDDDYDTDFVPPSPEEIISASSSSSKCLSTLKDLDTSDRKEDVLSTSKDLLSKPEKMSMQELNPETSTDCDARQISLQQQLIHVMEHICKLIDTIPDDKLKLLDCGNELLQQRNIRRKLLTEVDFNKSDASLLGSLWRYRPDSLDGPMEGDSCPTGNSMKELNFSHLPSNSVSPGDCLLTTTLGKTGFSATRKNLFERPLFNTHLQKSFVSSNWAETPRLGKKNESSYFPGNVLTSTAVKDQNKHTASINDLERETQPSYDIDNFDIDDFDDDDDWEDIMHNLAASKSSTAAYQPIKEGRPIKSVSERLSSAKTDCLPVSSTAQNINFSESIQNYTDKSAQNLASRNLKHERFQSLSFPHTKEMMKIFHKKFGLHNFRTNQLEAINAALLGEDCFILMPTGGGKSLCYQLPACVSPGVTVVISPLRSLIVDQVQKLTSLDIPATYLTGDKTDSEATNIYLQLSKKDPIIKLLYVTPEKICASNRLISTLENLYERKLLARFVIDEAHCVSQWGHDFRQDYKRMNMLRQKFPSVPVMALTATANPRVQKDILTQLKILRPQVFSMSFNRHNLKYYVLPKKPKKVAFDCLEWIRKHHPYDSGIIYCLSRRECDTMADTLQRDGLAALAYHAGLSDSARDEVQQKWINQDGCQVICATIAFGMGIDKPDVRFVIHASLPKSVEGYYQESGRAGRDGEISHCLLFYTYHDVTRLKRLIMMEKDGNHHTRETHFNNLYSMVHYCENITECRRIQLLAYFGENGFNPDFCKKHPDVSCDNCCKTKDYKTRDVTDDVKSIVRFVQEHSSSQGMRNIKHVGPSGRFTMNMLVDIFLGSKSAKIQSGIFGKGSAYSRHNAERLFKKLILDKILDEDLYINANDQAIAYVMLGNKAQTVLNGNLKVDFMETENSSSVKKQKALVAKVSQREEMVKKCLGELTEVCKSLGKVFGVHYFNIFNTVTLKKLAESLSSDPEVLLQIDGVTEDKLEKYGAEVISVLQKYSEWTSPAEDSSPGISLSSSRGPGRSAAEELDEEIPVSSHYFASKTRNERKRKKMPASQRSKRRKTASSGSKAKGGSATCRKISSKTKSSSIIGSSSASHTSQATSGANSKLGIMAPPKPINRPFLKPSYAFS

Biological target: RecQ-like DNA helicase BLM (Homo sapiens) (UniProt P54132)
Experiment: qHTS Assay for Inhibitors of Bloom's syndrome helicase (BLM);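 further: plate controls were vehicle for no effect and no enzyme for full effect; nearly all actives have a fitted effect of over 35% in size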
Details: recombinant BLM DNA unwinding, fluorescence dequenching; at 56.1 µM (top of the series)

Question: With CCC(=O)N(c1ccccc1)C1CCN(CCc2ccccc2)CC1 as the molecule, how does the activity change, negative = inhibition read?
Answer: The activity change, negative = inhibition was inactive: -4.82%.

Question: With CN(CCCl)CCCl as the molecule, how does the activity change, negative = inhibition read?
Answer: Its activity change, negative = inhibition is inactive: -6.65% and inactive: -6.81%.
